Results: patent publication US6924302B2, “Substituted triazole diamine derivatives as kinase inhibitors” (Ortho McNeil Pharmaceutical, Inc., priority 2000, dated 2005)

Columns and labels:
Protein Kinase A = target: T1, Protein Kinase A (Bos taurus, UniProt P00517); assay: Kinase Selectivity Assay Protein Kinase A; format: biochemical, bovine
T1 construct: purified from bovine heart; purchased Upstate Biotech 14-114; host or cells: bovine heart
Description: (§1) Assays to test compound inhibition of other kinases were preformed using methods that measure the amount of phosphorylation of a biotinylated peptide substrate. Biotinylated peptide substrates were selected from the literature as appropriate for the enzyme being evaluated. […] Assay conditions vary slightly for each protein kinase, for example, insulin receptor kinase requires 10 mM MnCl2 for activity and Calmodulin-dependent protein kinase requires calmodulin and 10 mM CaCl2. These assay conditions are known in the art. The reaction mixture was dispensed into the wells of a streptavidin coated Flashplate and 1 μl drug stock in 100% DMSO was added to a 100 μl reaction volume resulting in a final concentration of 1% DMSO on the reaction. Enzyme was diluted in 50 mM Tris-HCl pH=8.0, 0.1% BSA and add to each well. The reaction was incubated for one hour at 30° C. in the presence of compound. […] The plate was read on a scintillation counter to determine ^33P-γ-ATP incorporated into the immobilized peptide. […] A maximum and minimum signal for the assay was determined on each plate. The IC50 was calculated from the dose response curve of the percent inhibition of the maximum signal in the assay according to the formula [max signal—background/test compound signal—background (100)=% inhibition] by graphing the percent inhibition against the log concentration of test compound. […]

Insulin Receptor Kinase = Insulin Receptor Kinase (Homo sapiens, UniProt P06213); assay: Kinase Selectivity Assay Insulin Receptor Kinase; format: biochemical
Description: as §1

SMILES: Cc1cc(C)c(C(=O)n2nc(Nc3ccc(NS(C)(=O)=O)cc3)nc2N)s1 [Cpd 108, N-[4-[[5-amino-1-[(3,5-dimethyl-2-thienyl)carbonyl]-1H-1,2,4-triazol-3-5 yl]amino]phenyl]-methanesulfonamide]
- IC50 (Protein Kinase A): > 100000 nM

SMILES: CCc1ccc(C(=O)n2nc(Nc3ccc(S(=O)(=O)Nc4ccccn4)cc3)nc2N)s1 [Cpd 119]
- IC50 (Insulin Receptor Kinase): 159 nM
